Key:
PAR-2 [1] = molecular target: T1, PAR-2 (Homo sapiens, UniProt P55085); assay: PAR signalling activity: calcium mobilization (Fluo-4) in response to peptides; format: cell-based; conditions: result in words, FIG. 4A-4C
T1 construct: endogenous in cells; host or cells: HUVEC or HT29 colon carcinoma cells
T1 sequence (P55085 26-397): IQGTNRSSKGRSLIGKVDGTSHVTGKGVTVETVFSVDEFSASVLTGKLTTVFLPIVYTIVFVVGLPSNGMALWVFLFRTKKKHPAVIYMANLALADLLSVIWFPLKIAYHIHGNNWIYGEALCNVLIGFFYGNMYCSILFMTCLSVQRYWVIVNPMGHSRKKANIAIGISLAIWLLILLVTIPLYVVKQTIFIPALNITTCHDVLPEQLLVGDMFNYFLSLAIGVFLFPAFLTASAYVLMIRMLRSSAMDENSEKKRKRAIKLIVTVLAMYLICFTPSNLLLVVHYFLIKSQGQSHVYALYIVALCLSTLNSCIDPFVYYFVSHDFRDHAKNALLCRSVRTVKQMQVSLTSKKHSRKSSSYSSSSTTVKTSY
Method: (§1) Confluent HUVECs or HT29 colon carcinoma cells were loaded for 30-60 minutes with the fluorescent dye Fluo-4. Final concentration 4 uM Fluo-4, 0.02% pluronic acid in physiological buffer. Cells were then washed with assay buffer, (HBSS containing 1 mM CaCl2, 1 mM MgSO4, and 2.5 mM probenecid). Cells were stimulated with various doses of PAR-2 activating peptide, PAR-1 activating peptide or ATP.
(§2) Fluorescence was monitored using a Wallac 1470 fluorescent plate reader. (See Al-ani et. al Journal of Pharmacology and Experimental Therapeutics 290:2, 753-760)
Calcium mobilization curves of the PAR-2 agonist SLIGKV (SEQ ID NO:25) compared with two truncated molecules LIGK (SEQ ID NO:1) and LIGKV (SEQ ID NO:2) are provided in FIG. 4A. […] Similar studies were performed on alanine substituted SLIGKV (SEQ ID NO:25) peptides (FIGS. 4B and 4C).

PAR-2 [2] = molecular target: T1, PAR-2; assay: Inhibition of P2AP (SLIGKV)-stimulated PAR-2 signaling in cells pretreated with antagonist; format: cell-based
Method: as §1, §2
In order to assess the potential of peptides selected above to block PAR-2 signaling, cells were pretreated with potential antagonist peptides for a predetermined amount of time and were subsequently treated with P2AP. Methods and protocols used were the same as those described in Example 1.

[3] = tested on: ATP signaling (G-protein coupled receptors); assay: Activation study with ATP on cells pretreated with antagonist; format: cell-based; conditions: cells pretreated with the substance
Method: as §1, §2
(§3) Both of these molecules signal through G-protein coupled receptors, and PAR-1 is very highly homologous to PAR-2, to the degree that the PAR-1 agonist peptide can signal through PAR-2 at high concentrations.

PAR-1 = molecular target: T2, PAR-1 (Homo sapiens, UniProt P25116); assay: Activation study with PAR-1 activation peptide SFLLRN on cells pretreated with antagonist; format: cell-based; conditions: cells pretreated with the substance
T2 construct: endogenous in cells; host or cells: HUVEC or HT29 colon carcinoma cells
T2 sequence (P25116 22-425): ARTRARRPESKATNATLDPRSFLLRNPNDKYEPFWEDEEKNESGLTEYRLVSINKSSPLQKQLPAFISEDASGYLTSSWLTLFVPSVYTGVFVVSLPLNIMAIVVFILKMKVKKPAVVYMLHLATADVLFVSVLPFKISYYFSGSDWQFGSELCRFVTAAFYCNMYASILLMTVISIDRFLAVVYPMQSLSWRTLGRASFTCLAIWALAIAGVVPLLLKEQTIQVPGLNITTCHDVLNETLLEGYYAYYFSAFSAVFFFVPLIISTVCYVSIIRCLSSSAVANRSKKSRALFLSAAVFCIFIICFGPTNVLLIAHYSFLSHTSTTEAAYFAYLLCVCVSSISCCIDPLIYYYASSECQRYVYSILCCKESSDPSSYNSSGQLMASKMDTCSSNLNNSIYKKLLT
Method: as §1, §2, §3

PAR-2 [4] = molecular target: T3, PAR-2 (Mus musculus, UniProt P55086); assay: Edema model: footpad edema induced by PAR-2 agonist peptide; format: in vivo, mice; conditions: co-treatment in footpad, measured one hour later
T3 construct: C57bl/b mice had 5-25 μg of SLIGKV injected into their footpad; from tissue; host or cells: mouse footpad in vivo (C57bl mice)
T3 sequence (P55086 26-399): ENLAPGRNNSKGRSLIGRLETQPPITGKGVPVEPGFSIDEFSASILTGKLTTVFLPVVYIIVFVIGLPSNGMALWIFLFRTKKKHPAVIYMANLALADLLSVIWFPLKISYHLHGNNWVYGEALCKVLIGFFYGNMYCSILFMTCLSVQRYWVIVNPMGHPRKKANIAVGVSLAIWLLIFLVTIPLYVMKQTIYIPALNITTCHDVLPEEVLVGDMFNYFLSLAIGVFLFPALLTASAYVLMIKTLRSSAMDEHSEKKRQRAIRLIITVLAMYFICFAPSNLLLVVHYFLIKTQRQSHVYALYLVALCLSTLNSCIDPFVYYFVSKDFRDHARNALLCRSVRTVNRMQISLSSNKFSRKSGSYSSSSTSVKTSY
Method: C57bl/b mice had 5-25 μg of SLIGKV injected into their footpad, in the presence or absence of increasing amounts of various PAR-2 antagonists. One hour later, footpad (tarsus) thickness was measured to quantify inflammation (edema).
The inventors next assessed whether the LIGK peptide had in vivo PAR-2 antagonistic activity. This was studied using an edema model where vascular permeability was induced by the PAR-2 agonist peptide. In this model, the PAR-2 peptide induces severe edema as expected (FIG. 8). This vascular response was blocked by co-treatment with the PAR-2 antagonist LIGK (SEQ ID NO:1) (FIG. 9). Thus, LIGK (SEQ ID NO:1) functions in vivo to block PAR-2 signaling.

Lewis lung carcinoma = Lewis lung carcinoma (LLC) experimental metastatic model; format: in vivo, mice
Method: In this tumor growth model, treatments were initiated on day 3 post inoculation, after tumor cells had homed to the lung, and started growing. […] At a dose of 4 mg/day tumor growth was inhibited by 75%. […] C57/B16 mice were injected i.v. with Lewis lung carcinoma. 3 days later, treatment of lung tumors was started with i.p. LIGK (SEQ ID NO:1) for 11 days.

LLC primary tumor = LLC primary tumor model; format: in vivo, mice; conditions: 1 mg/day, treatment initiated when tumor volume approaches 100 mm^3
Method: Similar experiments were performed in the LLC primary tumor model. In this model, treatment is initiated when tumor volume approaches 100 mm^3. […] At 1 mg/day, tumor growth was inhibited by 62%. Similar experiments were performed in the LLC primary tumor model. In this model, treatment is initiated when tumor volume approaches 100 mm^3. […] At 1 mg/day, tumor growth was inhibited by 62%.

angiogenesis = assay: Matrigel angiogenesis model (hemoglobin content in the plug); format: in vivo, mice; conditions: highest dose, s.c. for 6 days, FGF-2 Matrigel
Method: Since TF/fVIIa inhibitors are also potent antiangiogenic agents, we tested the antiangiogenic activity of LIGK in the Matrigel angiogenesis model. In this assay Matrigel admixed with bFGF are implanted subcutaneously and treatments are initiated 24 h later. bFGF control plugs are highly vascularized and filled with blood filled vessels. […] At the highest dose of LIGK,. angiogenesis was inhibited by more than 80%.
C57/B16 mice were injected s.c. with Matrigel containing 0.5 μg FGF-2. Treatment was started at day 1 with LIGK administered s.c. for 6 days.

[5] = Arthritis in mice (anti-collagen II antibody plus LPS), foot thickness; format: in vivo; conditions: 200 mg/kg/day i.p. for 7 days, Balb/c mice, FIG. 19
Method: (§4) On day 0, Balb/c mice were injected IV with the 1 -2 mg 1B11 monoclonal anti-collagen II antibody. On day 1, animals were injected i.p with 20 ug LPS, and treatment with PAR-2 antagonists (200 mg/kg/day i.p). for 7 days is initiated. After treatment was completed, disease is quantified by measuring the thickness (swelling) in both feet of the mouse. This was compared to untreated mice. (p<0.05 vs. vehicle control)

[6] = Arthrogen-CIA induced body weight loss in mice; format: in vivo; conditions: 200 mg/kg/day i.p. for 7 days, Balb/c mice
Method: as §4, with “1-2” for “1 -2”, “mice This model results in significant weight loss associated with the administration of LPS. Treatment of these mice with LIGK abrogated this LPS induced weight loss.” for “mice. (p<0.05 vs. vehicle control)”

LLC = assay: Antiproliferative effect on LLC in vitro; format: cell-based; conditions: data not shown

CC[C@H](C)[C@H](NC(=O)[C@@H](N)CC(C)C)C(=O)NCC(=O)N[C@@H](CCCCN)C(=O)O [LIGK]
calcium mobilization / signaling activity (PAR-2 [1]): Neither truncated molecule was able to induce calcium mobilization
blocking of SLIGKV signaling (PAR-2 [2]; 1 mM antagonist versus 100 uM SLIGKV, FIG. 5): completely blocked
IC50 (PAR-2 [2]; FIG. 6): < 500 µM
antagonist activity on PAR-2 signaling (PAR-2 [2]; result in words, cells pretreated with the substance, then P2AP): demonstrated antagonist activity
inhibitory effect on signaling by ATP [3]: no inhibitory effect
inhibitory effect on signaling by PAR-1 (activation peptide SFLLRN) (PAR-1): no inhibitory effect
vascular response (edema) induced by PAR-2 agonist peptide (PAR-2 [4]): blocked
metastatic tumor growth inhibited (Lewis lung carcinoma; 4 mg/day i.p., treatment from day 3 for 11 days): 75%
approximate IC50, metastatic tumor growth (Lewis lung carcinoma; across multiple independent studies, FIG. 11): ~2 mg/day
primary tumor growth inhibited (LLC primary tumor): 62%
angiogenesis inhibited (hemoglobin content in the plug) (angiogenesis): more than 80%
inflammation (arthritis, foot swelling) [5]: inhibited inflammation
LPS induced weight loss [6]: abrogated
antiproliferative effect on LLC in vitro (LLC): no antiproliferative effect
